# Values quoted from earlier work, collected in patent US20250325690A1, “ANTIBODY-DRUG CONJUGATE WITH TWO TYPES OF DRUG-LINKER CONJUGATES ON SINGLE ANTIBODY” (priority 2022, published 2025).
# What was measured:
# [1] = 0.8 mg/kg to 8.0 mg/kg once every three weeks; cited from earlier work
# [2] = human, in vivo; cited from earlier work
# [3] = human, in vivo; cited from earlier work; remark: listed apart in the source
substance,measurement,setting,value
Enhertu,dose-limiting toxicity,[1],No dose-limiting toxicity was observed
same,patients with severe inflammatory side effects,[2],10-15%
same,"dose reduction caused by adverse reactions, patients",[3],23.4%
